The structures appear in SMILES notation. “And” between values parts separate entries of the source, which are not always exact repeats. Equal entries are not always repeated. Only a part is listed here, and it is no random draw.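 Step 1: grow cells in 96-well plates. Step 2: add test compound at a single concentration. Step 3: incubate 48 h. Step 4: record percent growth.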 Some salts and complexes are drawn in separate pieces, as the source files them; their charges need not balance. The source made the active and inactive calls. Rule for the calls: active = growth percent below 10; inactive = the rest.

The record followed here is PubChem BioAssay (NCI).

In the assay the test system is NCI-H23 lung. The experiment in a line: NCI-60 one-dose screen, 48 h (100 = growth as untreated, 0 = no growth, -100 = all killed). Particulars: 10 µM.
Consider `COc1ccc(C(O)(C(=O)OCCN2CCCCC2)c2ccc(OC)cc2)cc1`, for which the growth is inactive: 98%.
For the molecule `Cc1c([N+](=O)[O-])c(C)c([N+](=O)[O-])c(C)c1[N+](=O)[O-]`, the growth is inactive: 103%.
The result for `O=C(OCCN1CCCCCCCC1)C(O)(c1ccccc1)c1ccccc1` reads inactive: 105%.
The result for `CN/C(N)=N/[N+](=O)[O-]` reads inactive: 104%; that for `CCOC(=O)Nc1c([N+](=O)[O-])cc([N+](=O)[O-])cc1[N+](=O)[O-]`, inactive: 97.2%.
The result for `O=[N+]([O-])c1cc([N+](=O)[O-])c(Nc2nnnn2CCO)c([N+](=O)[O-])c1` reads inactive: 99.3%; that for `Cc1c([N+](=O)[O-])cc([N+](=O)[O-])c(Br)c1[N+](=O)[O-]`, inactive: 93.8%; that for `CN1CCN(CCOC(=O)C(O)(c2ccccc2)c2ccccc2)CC1`, inactive: 94.4%.
Turning to `O=[N+]([O-])c1cc([N+](=O)[O-])c(O)c([N+](=O)[O-])c1.c1ccc([I+]c2ccccc2)cc1`, the growth is inactive: 42.3%.
`Nc1cc([N+](=O)[O-])cc([N+](=O)[O-])c1O`: the growth is inactive: 98.8% and inactive: 98.9%.
The same measure for `CC(C)N1CCN(CCOC(=O)C(O)(c2ccccc2)c2ccccc2)CC1`: inactive: 100%; for `CC(C)N(CCCl)C(C)C`: inactive: 99.1%.
`O=[N+]([O-])OCCOc1ccc([N+](=O)[O-])cc1[N+](=O)[O-]`: the growth was inactive: 110%.
On to `O=[N+]([O-])N(CCOC(N(F)F)(N(F)F)N(F)F)CC([N+](=O)[O-])([N+](=O)[O-])[N+](=O)[O-]`, for which the growth was inactive: 105%.
For the molecule `NN/C(N)=N/[N+](=O)[O-]`, the growth was inactive: 124%.
